Measurements: ChEMBL document CHEMBL4041501, “Isolation of Acacetin from Calea urticifolia with Inhibitory Properties against Human Monoamine Oxidase-A and -B” (J Nat Prod, 2016)

Chains of the proteins cited; added tags and fusions are not shown.
UniProt P27338, whole entry: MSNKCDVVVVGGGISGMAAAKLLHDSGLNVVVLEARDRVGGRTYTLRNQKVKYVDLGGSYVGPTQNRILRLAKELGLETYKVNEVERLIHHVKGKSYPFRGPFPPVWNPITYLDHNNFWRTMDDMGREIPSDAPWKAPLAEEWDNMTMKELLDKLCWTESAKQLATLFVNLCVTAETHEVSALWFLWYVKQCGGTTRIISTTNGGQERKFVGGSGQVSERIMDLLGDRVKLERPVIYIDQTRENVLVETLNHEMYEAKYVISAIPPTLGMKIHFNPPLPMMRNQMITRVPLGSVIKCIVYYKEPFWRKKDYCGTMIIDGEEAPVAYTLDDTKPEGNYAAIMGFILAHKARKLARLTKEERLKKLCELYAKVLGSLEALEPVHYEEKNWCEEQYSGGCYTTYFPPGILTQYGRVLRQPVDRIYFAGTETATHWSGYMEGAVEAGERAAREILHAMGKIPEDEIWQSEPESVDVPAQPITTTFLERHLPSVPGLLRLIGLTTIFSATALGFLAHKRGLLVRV
UniProt P21397, whole entry: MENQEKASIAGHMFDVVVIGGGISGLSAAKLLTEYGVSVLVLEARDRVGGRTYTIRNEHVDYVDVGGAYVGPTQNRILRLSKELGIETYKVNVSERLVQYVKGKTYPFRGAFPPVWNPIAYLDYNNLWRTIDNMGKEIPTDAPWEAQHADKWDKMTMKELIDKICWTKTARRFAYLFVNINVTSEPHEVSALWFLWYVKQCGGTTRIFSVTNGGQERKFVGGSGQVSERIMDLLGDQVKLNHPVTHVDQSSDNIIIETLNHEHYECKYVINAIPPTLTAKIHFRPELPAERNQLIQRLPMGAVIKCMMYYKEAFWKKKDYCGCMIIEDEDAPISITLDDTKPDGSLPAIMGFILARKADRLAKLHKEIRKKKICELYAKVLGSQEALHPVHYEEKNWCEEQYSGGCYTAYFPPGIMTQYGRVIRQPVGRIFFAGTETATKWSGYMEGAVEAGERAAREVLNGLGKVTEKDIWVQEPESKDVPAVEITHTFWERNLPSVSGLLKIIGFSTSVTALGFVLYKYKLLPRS

Legend:
[1] = target: Amine oxidase [flavin-containing] B (Homo sapiens, UniProt P27338)
[2] = target: Amine oxidase [flavin-containing] A (Homo sapiens, UniProt P21397)

NNCCc1ccccc1 [PHENELZINE]
Ki [1]: 124 nM | Ki [2]: 163 nM
